## Yeast mating assay 2: variants of the scFv Ab-91

Target peptide (SARS-CoV-2 spike, HR2 region): PDVDLGDISGINAS

Parent: Ab-91, a human scFv built as VL, three GGGGS repeats, VH. Only the CDRs of the heavy chain vary.
VL: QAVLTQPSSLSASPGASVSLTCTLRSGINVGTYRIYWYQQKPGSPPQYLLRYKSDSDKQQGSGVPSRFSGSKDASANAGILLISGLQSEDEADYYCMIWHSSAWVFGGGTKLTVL
VH: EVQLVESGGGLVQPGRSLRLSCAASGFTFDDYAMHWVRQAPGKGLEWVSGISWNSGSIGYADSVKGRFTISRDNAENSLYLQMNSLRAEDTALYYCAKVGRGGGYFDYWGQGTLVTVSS

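Variants in AAYL51 differ from the parent at up to three CDR positions; double and triple changes were sampled at random. In AlphaSeq, yeast of one mating type display the scFv and yeast of the other type display the target. Binding brings cells together so that they mate, and sequencing counts the barcode pairs among the diploids. Read counts were normalised to the haploid input and turned into Kd by a linear fit to BCL2-family pairs of known affinity, for each replicate. There are three technical replicates.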

Each variant is given by its three heavy chain CDRs, as the data file delimits them; those of the parent are GFTFDDYAMH, GISWNSGSIGYADSVK, VGRGGGYFDY. Affinities are written as log10 Kd with Kd in nM; a lower number is a better binder. An entry "nd" has no value in the source: the pair was not observed among the diploids in that replicate. This suggests poor binding but is not conclusive. Nonspecific signal, from three strains lacking the peptide, appeared in 21% of pairings of library AAYL51, centred on 4.54 (5% of these signals below 3.26); values are not corrected for it. The control count says in how many pairings with the empty strains this scFv gave a signal, with their mean in brackets. For reference, the parent read 1.86 as the reference entry and 0.88 as a member of this library.

| # | CDR-H1 | CDR-H2 | CDR-H3 | log10 Kd (nM) by replicate | signal with controls |
|---|---|---|---|---|---|
| 1 | GFTFDDYAMH | GIPWNSGSIGYADSCK | VGRGKGYFDY | nd 4.90 nd | 2 of 9 (4.25) |
| 2 | GFTFDDYMMH | GISWNSGSIGYADSVK | NGRDGGYFDY | nd nd nd | 1 of 9 (2.82) |
| 3 | GFTFDDYAMH | GISWNSHSIGYCDSTK | VGRGGGYFDY | 4.22 nd 4.21 | 3 of 9 (4.96) |
| 4 | GFHFDDYAMH | NISWNSGSIGYADSVK | VLRGGGYFDY | 4.90 6.34 nd | 1 of 9 (4.54) |
| 5 | GFTFDDYAMH | GISWNSCSIGYYDSVK | VGRGGGYFDF | 3.94 4.49 4.68 | 6 of 9 (5.02) |
| 6 | GFTFDDYAMH | GISWNSGSIFYADSVK | VGRGPGYFDY | nd nd nd | 0 of 9 |
| 7 | GFTFDDYAMH | GISWNSPSIVYADSVK | VGRGGWYFDY | nd nd nd | 1 of 9 (3.37) |
| 8 | GTTFDDYAMH | GISWNSGFIGYADSVK | VGRGGGSFDY | 4.62 nd nd | 4 of 9 (5.12) |
| 9 | MFTFDDYAMH | GISWNSGSIGYADRVK | VGRGGGYQDY | 3.67 5.41 nd | 5 of 9 (4.52) |
| 10 | GFTFDDYAMH | GISWNSGSIGPADSGK | VGRGGGFFDY | 4.81 5.83 4.68 | 5 of 9 (4.77) |
| 11 | GFTFDDYAMH | GISWNVGSIGYADSVK | VGRGGGYFMY | nd nd nd | 0 of 9 |
| 12 | GFTFDDMATH | GISWNSGDIGYADSVK | VGRGGGYFDY | 4.53 nd nd | 2 of 9 (5.22) |
| 13 | GVTFDDYAMH | GISFNSGSIGYADSVK | VGRGGGYQDY | nd nd nd | 0 of 9 |
| 14 | GFTFDDYAMH | GISWNSGSIGKADSVK | VVRGGGYFPY | 5.83 nd 5.26 | 5 of 9 (5.01) |
| 15 | GFTFDDYAMS | GISWNSGSIGYADSVK | SGRGGGYFDT | nd nd nd | 0 of 9 |
| 16 | GFTFDDYAMH | SIDWNSGSIGGADSVK | VGRGGGYFDY | nd nd nd | 0 of 9 |
| 17 | GFTFDDYAMH | GILWNSGSIGYANSVK | VGRGGGGFDY | nd nd nd | 0 of 9 |
| 18 | GFTFDDYAMH | GISWNSGSIGYDDSVK | VGRYGGMFDY | nd 5.57 nd | 2 of 9 (3.66) |
| 19 | GFTFDDYAMH | GISWNSGSIRYADSVK | VGTGGGYQDY | nd nd nd | 1 of 9 (4.57) |
| 20 | GTTFDDYAMH | IISWNSGSIGYADSVK | VGRGGGVFDY | 3.37 nd nd | 0 of 9 |
| 21 | IFTFDDYAGH | GISWNSQSIGYADSVK | VGRGGGYFDY | nd nd nd | 0 of 9 |
| 22 | GFYFDDYAMP | GISWNSGSIGAADSVK | VGRGGGYFDY | nd nd nd | 0 of 9 |
| 23 | AFTFDDYAMH | GISWNSGSIGYADSVK | VGRGGGYFDY | 4.36 nd nd | 0 of 9 |
| 24 | GAQFDDYAMH | GISWNSGSIGPADSVK | VGRGGGYFDY | 3.91 nd nd | 1 of 9 (5.32) |
| 25 | GFRFDDYAMH | GISWNSGSIGYADSVK | VGRGGGYFDY | 1.14 0.97 0.36 | 1 of 9 (5.51) |
| 26 | GFTDDDYAMK | GISWNSGSIGYADSVK | VGRGGGKFDY | 5.31 6.60 5.53 | 4 of 9 (4.78) |
| 27 | GFTFDDPKMH | GISWNSGSIVYADSVK | VGRGGGYFDY | nd nd nd | 0 of 9 |
| 28 | GFPFDDYAMH | GISWNSVSILYADSVK | VGRGGGYFDY | 4.91 nd nd | 0 of 9 |
| 29 | GFTFDHYAMH | GWSWNSGSIGYADSVK | VGRGGTYFDY | nd nd nd | 1 of 9 (4.17) |
| 30 | GFTFDDYAMH | GISWNSGSIGYADSRF | VGRGYGYFDY | 3.31 nd nd | 0 of 9 |
| 31 | QFTFDDYAMH | GVSWNSGSFGYADSVK | VGRGGGYFDY | 5.09 nd nd | 3 of 9 (4.37) |
| 32 | GFTFDCYAMH | GISWNSGSIGYADSLK | VGRGGGWFDY | 5.59 6.38 nd | 4 of 9 (4.98) |
| 33 | GFTFDDYAMH | GISWNSGSIGYADSVY | VMRGGGYFYY | 4.37 4.43 nd | 0 of 9 |
| 34 | GFTFDDYAMH | GISNNSGSIGYADSVK | VGGGGGYFVY | nd nd nd | 2 of 9 (4.84) |
| 35 | GFTFDDYAMH | GISWNSGSIGYADSVK | VGRGGGYFDG | 2.75 2.76 2.66 | 4 of 9 (4.98) |
| 36 | GFTFDDVAMH | GYSWQSGSIGYADSVK | VGRGGGYFDY | nd nd nd | 2 of 9 (5.20) |
| 37 | GFHFDDYAMH | GISWNSGSIGYADSVK | VGRIGEYFDY | 3.10 3.26 2.86 | 4 of 9 (4.01) |

Repeated from above, the 2 best binders with a signal in all replicates:

CDR-H1,CDR-H2,CDR-H3,log10 Kd (nM) by replicate,signal with controls
GFRFDDYAMH,GISWNSGSIGYADSVK,VGRGGGYFDY,1.14 0.97 0.36,1 of 9 (5.51)
GFTFDDYAMH,GISWNSGSIGYADSVK,VGRGGGYFDG,2.75 2.76 2.66,4 of 9 (4.98)

Data: MIT Lincoln Laboratory AlphaSeq set, Engelhart et al. 2022, doi:10.1038/s41597-022-01779-4, as distributed in FLAb.